A short description of data set [1]: Pharmacokinetic study in rats after oral administration of QSG.
Data set [2] can be described thus: Concentrations of 24 analytes in QSG treated plasma (Table S5). The note with it: n = 5.
The mark [3] stands for this setting: rat plasma, single oral 7 g/kg QSG, n = 6.

From article PMC12567096, “An Efficacy- and In Vivo Exposure-Oriented Integrated Study to Investigate the Effective Components of Qishen Granule” (Pharmaceuticals, 2025) come the findings set out here.

As to Liquiritin apioside, the “AUC0→∞” value in data set [1] (Table S12, rats, oral QSG) turned out to be 185.7 ng·h/mL; in data set [1] (setting [3]), 185.7 ± 23.88 ng·h/mL. In data set [1] (exposure (AUC0→∞) of the component in rats after oral QSG, as used for ECI), this substance came in with an AUCi of 185.7. In data set [1] (exposure level (AUC0→∞) compared with the dosage of each compound in QSG), this substance came in with an Oral relative bioavailability of 0.009%. In data set [1] (setting [3]), this substance registered an AUC0→t of 176.2 ± 22.47 ng·h/mL. Further, in data set [1] (setting [3]), the Cmax (in general, the peak of the concentration-time curve) stood at 50.54 ± 10.68 ng/mL. The MRT (as a rule, the average time that molecules of a dose stay in the body) in data set [1] (setting [3]) is reported as 7.322 ± 0.9520 h. The substance also yielded a T1/2 in data set [1] (setting [3]) of 7.037 ± 2.092 h. For the same substance, the Tmax – broadly, the time from dosing to the highest level – in data set [1] (setting [3]) is recorded as 0.432 ± 0.093 h. Moreover, the Concentration in data set [2] (0.08 h) turned out to be 4.615 ± 2.872 ng/mL; in data set [2] (0.17 h), 18.791 ± 17.432 ng/mL; in data set [2] (0.5 h), 43.543 ± 9.903 ng/mL; in data set [2] (1 h) it was 20.141 ± 7.771 ng/mL; in data set [2] (2 h) it was 13.225 ± 5.233 ng/mL; in data set [2] (4 h) it was 8.826 ± 3.566 ng/mL. The Concentration worked out at 7.075 ± 1.340 ng/mL in data set [2] (8 h) and 4.785 ± 0.620 ng/mL in data set [2] (12 h).
